# Assay results reported in PubChem BioAssay AID504490 (NMMLSC, 2011).
# Only a part is listed here, and it is no random draw. Calls of active or inactive are those of the source.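 How the source made its calls: active means inhibition above a set limit, near 3 SD of compounds lacking own fluorescence (cut at about 54% in these data); inactive means the rest.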
# Test system: beta-arrestin 1 C-terminal peptide binding to AP2 beta2-adaptin appendage (human)
# Experiment: inhibitors of beta-arrestin/AP2 binding, primary screen, biochemical, GPCR trafficking, flow cytometry (AID 504490);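 further: plate controls were DMSO wells for no effect and 5 µM unlabelled arrestin peptide for full effect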
# Conditions: FITC-arrestin peptide / GST-AP2 beads, at 10 µM, hits give high values, AP2 beta2 appendage carries R879A mutation
row,SMILES,inhibition
1,CCC(=O)N(c1ccccc1)C1(COC)CCN(CCc2cccs2)CC1,inactive: 30.7%
2,CCC(=O)N(c1ccccc1)C1(COC)CCN(CCn2nnn(CC)c2=O)CC1,inactive: 1.4%
